This passage reports inhibition results from PubChem BioAssay AID898 (University of Pittsburgh Molecular Library Screening Center, 2007).

Structures are written as SMILES. This is a selection; strong and weak results do not stand in their true shares. Some results for these compounds are left out of this collection, so the calls shown say nothing about other tests. Active and inactive are the calls of the source. Cut-off read from the data, not from the text of the source: active = inhibition above about 50%; inactive = the rest.

This assay deals with YopH tyrosine phosphatase [Yersinia enterocolitica]. Description: YopH tyrosine phosphatase inhibitors, primary screen, biochemical, fluorescence Ex485/Em525 (AID 898). The settings on record: active compounds read high, concentration not given here.
For orientation: inhibition means the change of the read-out against control, counted positive when it falls. Take `CN(C)c1cccc(C(=O)NCC2(N(C)C)CCCCC2)c1`: the inhibition is inactive: -40.1%. On to `O=C(OC1CN2CCC1CC2)C(CO)(c1ccccc1)c1ccccc1` (stereo not given), for which the inhibition is inactive: 8.38%.

Consider `CC(C)N1C(=O)CC2(CCN(CCOC(=O)C(O)(c3ccccc3)c3ccccc3)CC2)C1=O`, for which the inhibition was inactive: -2.53%. In the case of `CCN1CCCC(OC(=O)C2(O)c3ccccc3C=Cc3ccccc32)C1` (stereo not given), the inhibition was inactive: -39.5%. For `CN(C)C1CCCC1OC(=O)C(O)(c1ccccc1)c1ccccc1` (stereo not given), the inhibition is inactive: -27.2%.
